Test results reported in ChEMBL document CHEMBL1130571, “Synthesis and evaluation of novel-N-[2-(bis-aryl-methoxy)ethyl-N-aralkyl-,-alkanediamines as potent and selective dopamine reuptake inhibitors: Seco analogs of GBR12935 and GBR12909” (Bioorg Med Chem Lett, 1997).

Protein sequences, listed by entry. Tags and fused reporters are not part of them.
UniProt P31652, whole entry: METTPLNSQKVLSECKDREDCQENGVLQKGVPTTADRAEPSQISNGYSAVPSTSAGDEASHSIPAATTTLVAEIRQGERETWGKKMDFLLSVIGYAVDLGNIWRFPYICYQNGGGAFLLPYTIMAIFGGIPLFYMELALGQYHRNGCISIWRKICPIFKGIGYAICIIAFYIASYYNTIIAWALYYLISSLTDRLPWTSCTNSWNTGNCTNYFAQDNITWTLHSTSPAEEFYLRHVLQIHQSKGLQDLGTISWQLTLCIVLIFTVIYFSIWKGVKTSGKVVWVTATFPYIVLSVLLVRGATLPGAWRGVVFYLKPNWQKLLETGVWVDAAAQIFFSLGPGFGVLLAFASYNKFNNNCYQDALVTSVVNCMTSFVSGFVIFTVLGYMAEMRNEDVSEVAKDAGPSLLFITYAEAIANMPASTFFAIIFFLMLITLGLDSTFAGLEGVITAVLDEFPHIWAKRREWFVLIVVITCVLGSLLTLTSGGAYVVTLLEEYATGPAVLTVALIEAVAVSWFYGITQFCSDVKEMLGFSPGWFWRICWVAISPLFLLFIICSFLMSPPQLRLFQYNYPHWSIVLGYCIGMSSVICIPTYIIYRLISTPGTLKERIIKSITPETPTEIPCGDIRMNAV

Molecular target: Sodium-dependent serotonin transporter (Rattus norvegicus, UniProt P31652)
Test: Compound was tested for its ability to inhibit the neurotransmitter serotonin-5-HT reuptake system using [3H]5-HT as radioligand

Fc1ccc(C(OCCN2CCN(CCCc3ccccc3)CC2)c2ccc(F)cc2)cc1 [VANOXERINE]
IC50: 70 nM
